Earlier results as cited in article PMC3506555, “[^11C]phenytoin revisited: synthesis by [^11C]CO carbonylation and first evaluation as a P-gp tracer in rats” (EJNMMI Research, 2012).

Test system: P-glycoprotein (P-gp)
Details: brain, man; ref not given; cited from earlier work

Question: Which “Distribution volume at baseline” value does the source give for (R)-^11C]verapamil here?
Answer: The value was “around 1”.
